Common to all, as to assay: Enzyme Assay and Determination of the Inhibition Constants
Experiment [1] deals with Coagulation factor X (Homo sapiens, UniProt P00742).
The target in experiment [2] is T1, Serine protease 1 (Bos taurus, UniProt P00760).
T1 sequence (P00760 whole entry): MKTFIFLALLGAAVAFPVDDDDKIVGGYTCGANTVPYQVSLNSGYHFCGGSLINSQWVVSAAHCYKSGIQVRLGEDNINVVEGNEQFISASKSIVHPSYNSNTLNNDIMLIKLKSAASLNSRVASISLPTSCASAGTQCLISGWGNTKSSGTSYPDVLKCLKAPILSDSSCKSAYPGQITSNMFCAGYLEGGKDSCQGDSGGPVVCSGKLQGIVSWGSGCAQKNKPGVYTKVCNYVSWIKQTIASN

The chains behind the UniProt entries cited, without tags or fusion partners. Residues count along the entry.
UniProt P00742, 41-179 limits assumed: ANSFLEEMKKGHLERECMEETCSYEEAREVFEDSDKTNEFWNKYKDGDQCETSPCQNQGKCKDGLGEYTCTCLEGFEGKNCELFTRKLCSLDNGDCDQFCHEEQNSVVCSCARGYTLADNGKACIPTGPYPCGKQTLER
UniProt P00742, 235-488 limits assumed: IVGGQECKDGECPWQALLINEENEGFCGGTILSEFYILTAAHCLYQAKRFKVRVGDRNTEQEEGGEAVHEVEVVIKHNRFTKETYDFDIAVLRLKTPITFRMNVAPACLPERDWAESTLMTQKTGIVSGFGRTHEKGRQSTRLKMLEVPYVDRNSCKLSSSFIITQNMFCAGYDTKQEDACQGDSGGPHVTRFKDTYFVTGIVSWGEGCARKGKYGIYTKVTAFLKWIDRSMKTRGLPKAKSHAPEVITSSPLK

Experiment [3] deals with Urokinase-type plasminogen activator (Homo sapiens, UniProt P00749). The conditions noted are these: pH 7.4; 22 °C.

Broadly, the Ki is a dissociation constant, usually derived from enzyme kinetics or from competition with a known ligand. Read a high Ki as lower affinity. With `N=C(N)c1ccc2nc(-c3cccc(-c4ccccc4)c3O)[nH]c2c1` [2-(2-hydroxy-3-phenylphenyl)-1H-1,3-benzodiazole-5-carboximidamide], affinity in experiment [1] was put at a Ki of 430 nM.

Turning to `CC(C)COc1cccc(-c2nc3cc(F)c(C(=N)N)cc3[nH]2)c1O` [CA-10], the results for the Ki in experiment [2] and in experiment [3] were 11000 nM and 110 nM, respectively.

As to `N=C(N)c1ccc(NC(=O)c2ccccc2O)cc1` [N-(4-CARBAMIMIDOYL-PHENYL)-2-HYDROXY-BENZAMIDE], the affinity in experiment [3], expressed as Ki, was 3800 nM.

Values taken from BindingDB's records for doi:10.1016/S1074-5521(01)00084-9 (Axys Pharmaceuticals, 2001).
